Experiments:
rat PDE10 enzyme = rat PDE10 enzyme (Rattus norvegicus (Rat), UniProt Q9QYJ6); assay: PDE10 scintillation proximity assay (SPA), inhibition of rat PDE10 enzyme activity; type: biochemical; details: geometric mean of 2-4 determinations unless otherwise indicated (b: ≧5 determinations; c: single determination)
Protocol: The products of Examples 1-175 were tested in the assay described below.
(§1) PDE10 activity was measured using a scintillation assay (SPA-based method) similar to that previously described by Seeger, T. F. et al., Brain Research 985 (2003) 113-126. The compounds' relative activity as PDE10 inhibitors was investigated by assaying a fixed amount of enzyme in the presence of the test compound and low substrate concentration (cAMP) such that an IC50 could be determined. […] The assay is performed in a 384-well format with 50 μL assay buffer (50 mM TRIS pH 7.5; 1.3 mM MgCl2; 0.01% Brij) containing enough PDE10 to convert ˜20% of 20 nM ^3H-cAMP, and a range of inhibitors. Reactions are incubated for 30 minutes at 25° C. The addition of 20 μL of 8 mg/ml yttrium silicate SPA beads (PerkinElmer) stops the reaction. The plates are sealed (TopSeal, PerkinElmer) and the beads are allowed to settle for 8 hrs, after which they are read on the Trilux Microbeta overnight. ^1Rat enzyme preparation:^2Human enzyme preparation:
The recombinant Bacmid was isolated and used to transfect sf9 insect cells to generate a viral stock. To generate cell paste for purification, sf21 cells were infected with the virus stock and cells were harvested 72 hours after infection as described in Seeger, T. F. et al., Brain Research 985 (2003) 113-126. Insect cell paste was lysed and after centrifugation, the supernatant was chromatographed on Ni-NTA agarose (Qiagen) followed by Mono Q (GE Healthcare Life Sciences) as described in Seeger, T. F. et al., Brain Research 985 (2003) 113-126.

Sequences of proteins named here, by UniProt entry; tags and fusion partners are left off. Residues count along the entry.
UniProt Q9QYJ6, 24-794: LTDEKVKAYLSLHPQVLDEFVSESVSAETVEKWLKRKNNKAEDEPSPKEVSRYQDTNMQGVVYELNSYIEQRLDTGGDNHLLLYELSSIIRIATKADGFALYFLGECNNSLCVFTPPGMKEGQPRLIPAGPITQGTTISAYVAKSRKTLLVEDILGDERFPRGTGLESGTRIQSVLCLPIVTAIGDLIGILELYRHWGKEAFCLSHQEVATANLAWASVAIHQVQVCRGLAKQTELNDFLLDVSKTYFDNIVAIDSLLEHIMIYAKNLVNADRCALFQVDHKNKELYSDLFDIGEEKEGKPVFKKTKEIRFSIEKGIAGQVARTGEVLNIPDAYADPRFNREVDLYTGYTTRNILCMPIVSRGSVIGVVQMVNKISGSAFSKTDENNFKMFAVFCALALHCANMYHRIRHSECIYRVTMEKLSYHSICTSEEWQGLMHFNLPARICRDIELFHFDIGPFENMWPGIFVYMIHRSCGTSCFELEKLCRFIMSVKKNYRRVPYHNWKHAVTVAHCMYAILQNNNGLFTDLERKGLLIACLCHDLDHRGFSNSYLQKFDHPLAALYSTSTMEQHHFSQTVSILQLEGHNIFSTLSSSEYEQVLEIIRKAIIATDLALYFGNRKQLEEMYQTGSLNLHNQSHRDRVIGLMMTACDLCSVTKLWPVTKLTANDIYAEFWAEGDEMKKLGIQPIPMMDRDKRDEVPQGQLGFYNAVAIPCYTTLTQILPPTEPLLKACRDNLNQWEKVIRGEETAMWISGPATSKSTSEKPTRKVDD

[1] = molecular target: human recombinant PDE10 enzyme (PDE10A) (Homo sapiens, UniProt Q9Y233); assay: PDE10 scintillation proximity assay (SPA), inhibition of human recombinant PDE10 enzyme activity; type: biochemical; details: geometric mean of 2-4 determinations unless otherwise indicated (b: ≧5 determinations; c: single determination)
Protocol: as §1
Human PDE10A coding sequence (amino acids 21 to 797 from the sequence with accession number NP_001124162.1) was synthesized using codon optimization for insect expression and cloned into the baculovirus expression vector pFastBac (Invitrogen) engineered to include a N-terminal His6 affinity tag to aid in purification as described in Seeger, T. F. et al., Brain Research 985 (2003) 113-126. The recombinant Bacmid was isolated and used to transfect sf9 insect cells to generate a viral stock. To generate cell paste for purification, sf21 cells were infected with the virus stock and cells were harvested 72 hours after infection as described in Seeger, T. F. et al., Brain Research 985 (2003) 113-126. Insect cell paste was lysed and after centrifugation, the supernatant was chromatographed on Ni-NTA agarose (Qiagen) as described in Seeger, T. F. et al., Brain Research 985 (2003) 113-126. Ni-NTA agarose eluting fractions containing PDE10A were chromatographed on Superdex 200 (GE Healthcare Life Sciences) in 50 mM Tris HCl pH 7.5, 150 mM NaCl, 1 mM EDTA, 10% glycerol, 2 mM TCEP, 1.5 mM benzamidine, EDTA-free protease inhibitors (Roche), and 5 μM E-64.

| IC50 (rat PDE10 enzyme) | IC50 [1] | SMILES |
| --- | --- | --- |
| 0.177 nM | 0.277 nM | COc1nc(C)nc2c1CN(c1ncnn3c(C)nc([C@@H]4CCOC4)c13)CC2 [Example 37, 4-methoxy-2-methyl-6-{7-methyl-5-[(3S)-tetrahydrofuran-3-yl]imidazo[5,1-f][1,2,4]triazin-4-yl}-5,6,7,8-tetrahydropyrido[4,3-d]pyrimidine] |
| 0.484 nM | – | Cc1nc2c(c(=O)n1C)CN(c1ncnn3c(C)nc([C@@H]4CCOC4)c13)CC2 [Example 127] |
| – | 1.62 nM | [2H]C([2H])([2H])n1c(C)nc2c(c1=O)CN(c1ncnn3c(C)nc([C@@H]4CCOC4)c13)CC2 [Example 128] |
| 0.174 nM | – | [2H]C([2H])([2H])Oc1nc(C)nc2c1CN(c1ncnn3c(C)nc([C@@H]4CCOC4)c13)CC2 [Example 132] |
| 1.04 nM | 1 nM | COc1nc(C2CC2)nc2c1CN(c1ncnn3c(C)nc(-c4ccccc4F)c13)CC2 [Example 135, 2-cyclopropyl-6-[5-(2-fluorophenyl)-7-methylimidazo[5,1-f][1,2,4]triazin-4-yl]-4-methoxy-5,6,7,8-tetrahydropyrido[4,3-d]pyrimidine] |
| 0.815 nM | – | Cc1nc(-c2ccccc2F)c2c(N3CCc4nc(C5CC5)n(C)c(=O)c4C3)ncnn12 [Example 142, 2-cyclopropyl-6-[5-(2-fluorophenyl)-7-methylimidazo[5,1-f][1,2,4]triazin-4-yl]-3-methyl-5,6,7,8-tetrahydropyrido[4,3-d]pyrimidin-4(3H)-one] |
